From US9206463B2, “Method of testing a disinfectant or antibiotic using phenanthridium derivatives” (Montana State University, priority 2006, dated 2015)

What was measured:
Micrococcus luteus = experiment: genomic DNA yield of live cells after EMA treatment; conditions: EMA 50 μM
Anoxybacillus = conditions: PCR inhibition after treating viable cells; cited from earlier work
[1] = tested on: bacterial duck pond isolates; experiment: defined mixtures of live and isopropanol-killed isolates, PMA treatment, 16S rRNA gene DGGE profile; assay type: cell-based; conditions: PMA 50 μM
[2] = tested on: Salmonella enterica serovar Typhimurium; experiment: hypochlorite disinfection monitored by PMA treatment, DNA extraction and qPCR of invA; assay type: cell-based
[3] = tested on: Salmonella enterica serovar Typhimurium; experiment: hypochlorite disinfection, loss of culturability by plate counts; assay type: cell-based

CC[n+]1c(-c2ccccc2)c2cc(N=[N+]=[N-])ccc2c2ccc(N)cc21.[Br-] [EMA]
loss of DNA due to EMA treatment of live cells (Micrococcus luteus): significant loss of DNA
suitability for live-dead differentiation (Anoxybacillus): unsuitable for live-dead differentiation

CC[N+](C)(CC)CCC[n+]1c(-c2ccccc2)c2cc(N=[N+]=[N-])ccc2c2ccc(N)cc21.[Cl-].[Cl-] [PMA]
DGGE bands after PMA treatment [1]: suppression of bands of the isopropanol-killed isolates

[Na+].[O-]Cl [hypochlorite, sodium hypochorite]
strongest qPCR signal reduction ([2]; 40 ppm hypochlorite, Ct of PMA-treated versus non-treated aliquots, invA): around 14 amplification cycles
hypochlorite concentration at which the cell debris pellet of PMA-treated samples starts to be increasingly red ([2]; 15 minutes incubation, PMA 50 μM): around 25 ppm
hypochlorite concentration at which qPCR signal reduction started to be significant ([2]; Ct of PMA-treated versus non-treated aliquots, invA): 20 ppm
hypochlorite concentrations resulting in complete loss of culturability [3]: ≥ 25 ppm
hypochlorite concentrations with only minor effect on plate counts ([3]; 15 minutes incubation): up to 10 ppm

CC(C)O [isopropanol]
viability after isopropanol exposure (Streptococcus sobrinus): complete loss of viability
